Values of other authors as cited in patent US5993783A, “Method and apparatus for pulmonary administration of dry powder α1-antitrypsin” (Inhale Therapeutic Systems, priority 1998, dated 1999).

Details: Nicolaysen et al. 1975

albumin tagged with Evans blue: albumin tagged with Evans blue, injected by Nicolaysen et al. to follow the dye in the lung interstitium
time to appearance of the dye in the lymphatics (injected): ≤ 10 min | time to appearance of dye within the interstitium (relative to the lymphatics): approximately twice as long
